{
  "source": "patent US4758555A",
  "about": "“Method for treating convulsions and epilepsy with organic copper compounds” (priority 1986, dated 1988)",
  "assay": "Lethality / acute toxicity (LD50 in 24 hours)",
  "settings": "dose and time given in the source",
  "data": [
    {"substance": "Cu(II)(4-nitrosalicylate)2", "values": [
      {"measurement": "Lethality (in words)", "result": "Lethal at higher doses"}
    ]}
  ]
}
